{"sequences": {"note": "Chains of the proteins cited; added tags and fusions are not shown. Residues count along the entry.", "UniProt P22303, 32-614": "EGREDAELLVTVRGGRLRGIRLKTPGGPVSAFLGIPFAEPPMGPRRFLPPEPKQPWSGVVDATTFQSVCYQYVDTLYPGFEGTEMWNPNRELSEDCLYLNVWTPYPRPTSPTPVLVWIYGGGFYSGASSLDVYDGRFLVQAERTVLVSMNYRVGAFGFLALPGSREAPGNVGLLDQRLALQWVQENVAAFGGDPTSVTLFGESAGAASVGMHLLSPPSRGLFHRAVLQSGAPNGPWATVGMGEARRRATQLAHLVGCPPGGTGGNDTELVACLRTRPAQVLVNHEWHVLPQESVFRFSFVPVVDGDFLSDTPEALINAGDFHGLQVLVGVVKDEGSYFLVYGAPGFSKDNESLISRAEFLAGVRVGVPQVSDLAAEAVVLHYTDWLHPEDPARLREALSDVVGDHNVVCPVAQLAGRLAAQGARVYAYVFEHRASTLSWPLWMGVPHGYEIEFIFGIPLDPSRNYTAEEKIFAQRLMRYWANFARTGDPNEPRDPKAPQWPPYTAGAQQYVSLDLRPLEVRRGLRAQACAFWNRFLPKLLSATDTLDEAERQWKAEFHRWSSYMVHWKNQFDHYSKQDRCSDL", "UniProt A0A3Q0KMM5, 27-661 limits assumed": "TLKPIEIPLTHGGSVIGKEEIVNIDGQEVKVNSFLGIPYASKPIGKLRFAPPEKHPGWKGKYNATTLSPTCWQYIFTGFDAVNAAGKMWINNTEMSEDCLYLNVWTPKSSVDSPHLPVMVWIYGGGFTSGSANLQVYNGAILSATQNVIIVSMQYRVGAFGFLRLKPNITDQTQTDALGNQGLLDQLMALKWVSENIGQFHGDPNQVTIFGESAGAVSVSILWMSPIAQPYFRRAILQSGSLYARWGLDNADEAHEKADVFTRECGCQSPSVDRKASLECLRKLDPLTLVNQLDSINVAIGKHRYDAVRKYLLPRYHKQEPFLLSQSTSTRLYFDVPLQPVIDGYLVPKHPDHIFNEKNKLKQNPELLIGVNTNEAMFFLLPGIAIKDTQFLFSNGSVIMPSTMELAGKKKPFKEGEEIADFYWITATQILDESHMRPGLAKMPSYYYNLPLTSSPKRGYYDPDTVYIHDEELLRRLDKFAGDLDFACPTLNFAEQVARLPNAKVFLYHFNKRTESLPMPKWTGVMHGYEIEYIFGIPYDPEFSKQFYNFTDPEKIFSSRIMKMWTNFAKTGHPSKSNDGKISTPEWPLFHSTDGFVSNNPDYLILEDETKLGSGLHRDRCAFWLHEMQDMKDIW"}, "source": "paper PMC12154458", "about": "“High-Throughput Screens of Repurposing Hub and DOS Chemical Libraries Reveal Compounds with Novel and Potent Inhibitory Activity Against the Essential Non-Neuronal Acetylcholinesterase of Schistosoma mansoni (SmTAChE)” (International Journal of Molecular Sciences, 2025)", "key": {"[1]": {"target": "recombinant human acetylcholinesterase, rHsAChE (Homo sapiens, UniProt P22303)", "assay_type": "biochemical"}, "rSmTAChE": {"target": "rSmTAChE (Schistosoma mansoni, UniProt A0A3Q0KMM5)", "assay_type": "biochemical"}}, "note": "Where a name gives a salt, the structure may show the parent alone.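 For Inhibition (%) (Average) in this document: mostly 20 µM final but a few compounds at 5 or 10 µM.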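 For Inhibition (%) Replicate A in this document: mostly 20 µM final but a few compounds at 5 or 10 µM.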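 For Inhibition (%) Replicate B in this document: mostly 20 µM final but a few compounds at 5 or 10 µM.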", "data": [{"smiles": "CN(CCCCCCCCCCN(C)C(=O)Oc1cccc([N+](C)(C)C)c1)C(=O)Oc1cccc([N+](C)(C)C)c1", "note": "[Demecarium bromide, reference compound]", "values": [{"measurement": "SI (Sm/Hs)", "setting": "[1]", "value": 531.20}, {"measurement": "fold greater potency for HsAChE versus SmTAChE", "setting": "[1]", "value": 531, "unit": "fold"}]}, {"smiles": "O=C(NC(=O)c1c(F)cccc1F)Nc1cc(Cl)c(OC(F)(F)C(F)C(F)(F)F)cc1Cl", "note": "(stereo not shown) [Lufenuron, reference compound]", "values": [{"measurement": "SI (Sm/Hs)", "setting": "[1]", "value": 3.17}]}, {"smiles": "CNC(=O)Oc1ccc2c(c1)[C@]1(C)CCN(C)[C@@H]1N2C", "note": "[Physostigmine salicylate, reference compound]", "values": [{"measurement": "Inhibition (%) (Average)", "setting": "rSmTAChE", "value": 92.00, "unit": "%"}, {"measurement": "Inhibition (%) Replicate A", "setting": "rSmTAChE", "value": 91.52, "unit": "%"}, {"measurement": "Inhibition (%) Replicate B", "setting": "rSmTAChE", "value": 92.48, "unit": "%"}, {"measurement": "rSmTAChE HTS Inhibition (Ave, %)", "setting": "rSmTAChE; 20 µM", "value": 91.99, "unit": "%"}]}, {"smiles": "CNC(=O)Oc1ccc2c(c1)[C@]1(C)CCN(C)[C@@H]1N2C", "note": "[Physostigmine sulfate, reference compound]", "values": [{"measurement": "Inhibition (%) (Average)", "setting": "rSmTAChE", "value": 106.08, "unit": "%"}, {"measurement": "Inhibition (%) Replicate A", "setting": "rSmTAChE", "value": 98.42, "unit": "%"}, {"measurement": "Inhibition (%) Replicate B", "setting": "rSmTAChE", "value": 113.74, "unit": "%"}]}]}
